Measurements as given in US20240091235A1, “USE AS SELECTIVE AGONIST OF MELANOCORTIN-4 RECEPTOR” (priority 2020, published 2024).

Amino acid sequences for entries named in this document (tags omitted).
UniProt P32245, whole entry: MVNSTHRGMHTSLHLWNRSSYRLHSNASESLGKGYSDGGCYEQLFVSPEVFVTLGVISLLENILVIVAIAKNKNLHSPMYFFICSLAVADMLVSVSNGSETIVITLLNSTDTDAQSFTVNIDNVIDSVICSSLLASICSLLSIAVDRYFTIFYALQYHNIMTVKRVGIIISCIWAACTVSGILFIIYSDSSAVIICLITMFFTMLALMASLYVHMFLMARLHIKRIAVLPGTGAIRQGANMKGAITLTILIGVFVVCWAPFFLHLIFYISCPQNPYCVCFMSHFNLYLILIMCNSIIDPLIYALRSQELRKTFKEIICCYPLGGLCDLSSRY

Experiments:
Format in all cases: cell-based
[1] = target: T1, MC4R (Homo sapiens, UniProt P32245); experiment: Pathhunter eXpress β-arrestin assay (U2OS cell line), MC4R; set-up: expressed in transfected cells; host or cells: U2OS (Pathhunter eXpress β-arrestin cell line); conditions: read-out: EC50 (nM) β-Arrestin MC4R, 90 minutes at 37° C.
Source text: A Pathhunter eXpress β-arrestin cell line (U2OS cell line) in which Prolink (PK)-tagged MC1R and MC4R, and enzyme acceptor (EA)-tagged β-arrestin were expressed together was established. When the MCR-PK portion of this cell line is activated, β-arrestin-EA is mobilized, and enzyme acceptor (EA) and Prolink (PK), which are the β-galactosidase enzyme fragments, interact. The activated enzyme hydrolyzes the substrate by β-galactosidase activity to produce a chemiluminescent signal, so that the activity can be measured. After the Pathhunter eXpress β-arrestin cell line (U2OS cell line) was incubated, the cells were inoculated into each well of the cell culture plate and incubated for 48 hours in a 37° C. incubator in the presence of 5% CO2. After the incubation, 5 μL of the sample diluted 5 times with buffer was added, the vehicle concentration was set to 1%, and the MC4R agonist compound diluted at each step concentration was added, followed by reaction at 37° C. for 90 minutes. The activity (%) of each agonist compound is expressed as 100%×(average RLU value of sample−average RLU value of vehicle control)/(average maximum value of control ligand−average RLU value of vehicle control), and the value was analyzed by CBIS data analysis suite (ChemInnovation, CA).

[2] = target: T2, melanocortin-4 receptor (MC4R) (Homo sapiens, UniProt P32245); experiment: Luciferase assay (CRE-LUC), HEK MC4R-Luc cells; conditions: luminescence relative to 10 μM NDP-α-MSH
T2 construct: expressed in transfected cells
Procedure: In order to measure the agonist ability for melanocortin-1 receptor (MC1R) and melanocortin-4 receptor (MC4R), a cell line that permanently expresses MC1R, MC4R and the luciferase gene (CRE-LUC) under the control of CRE (cAMP response element) was established.
After a mammalian cell expression vector (pCDNA3 (Neo)) (Invitrogen) containing the MC1R and MC4R genes was prepared, human embryonic kidney (HEK) cell lines were transformed by using Lipofectamine 2000 (Invitrogen) together with a vector (pCRE-Luc)(Stratagen) expressing a luciferase gene (CRE-LUC) under the control of a cAMP response element (CRE). […] Each well was treated with 50 μL of a Bright-Glo luciferase reagent (Promega) and left at room temperature for 15 minutes, and then the luminescence of each well was measured by using a luminometer (Victor).
HEK MC1R-Luc cells and HEK MC4R-Luc cells were added to each well of a 96-well luminometer cell culture plate (Costar) to a size of 2.5×10^4 cells in 100 μL of a culture medium and then incubated in a 37° C. incubator in the presence of 6% CO2 for 18 hours. […] Each well was treated with 50 μL of a Bright-Glo luciferase reagent (Promega) and left at room temperature for five minutes, and then the luminescence of each well was measured by using a luminometer (Victor). […] The measurements were measured using statistical software (Prizm).

[3] = target: T1, MC4R; experiment: cAMP Hunter Gs-coupled cAMP assay (CHO-K1 cell line), MC4R; set-up: expressed in transfected cells; host or cells: CHO-K1 (cAMP Hunter Gs-coupled cell line); conditions: 30 minutes at 37° C.
Procedure: After cAMP Hunter Gs-coupled cell lines (CHO-K1 cell line) in which each of MC1R and MC4R was overexpressed were established so that the increase in the cAMP level in cells due to agonist reaction was measurable, the cells were inoculated into each well of a white cell culture plate and incubated for 24 hours in a 37° C. incubator in the presence of 5% CO2. After the incubation, the medium was removed, and 15 μL of a 2:1 HBBS/10 mM HEPES:cAMP XS+Ab reagent was added. After 5 μL of the sample diluted 4 times with buffer was added, the vehicle concentration was set to 1%, and the MC4R agonist compound diluted at each step concentration was added, followed by reaction at 37° C. for 30 minutes. The activity (%) of each agonist compound is expressed as 100%×(average RLU value of sample−average RLU value of vehicle control)/(average RLU value of max control−average RLU value of vehicle control), and the value was analyzed by CBIS data analysis suite (ChemInnovation, CA).

Which EC50 [1] does the source give for α-MSH [reference compound] here?
The EC50 was 23.5 nM.

And the EC50 [2]?
The EC50 was 17.5 nM.

What about the EC50 [3] of the same substance?
The EC50 was 9.62 nM.
